For the series, the system named is Caco-2 monolayers. The conditions noted are these: Caco-2, reference compounds.

The structures appear in SMILES notation.

Consider `CCCC(=O)Nc1ccc(OCC(O)CNC(C)C)c(C(C)=O)c1` (stereo not shown) [acebutalol], for which the Pc amounted to 4.8 ×10⁻⁶ cm/s.

The values are drawn from patent publication US6936628B2, “Oral administration of epothilones” (Bristol-Myers Squibb Company, priority 2002, dated 2005).
